From ChEMBL document CHEMBL3862036, “Biphenyl Pyridazinone Derivatives as Inhaled PDE4 Inhibitors: Structural Biology and Structure-Activity Relationships” (J Med Chem, 2016)

Key:
[1] = species on record: Homo sapiens; experiment: Ratio of IC50 for PDE4 in PBMC (unknown origin) assessed as reduction in LPS-induced TNFalpha production to IC50 for human recombinant PDE4B1 assessed as reduction in [3H]cAMP hydrolysis
[2] = species on record: Homo sapiens; experiment: Ratio of IC50 for inhibition of PDE4 in human whole blood assessed as reduction in LPS-induced TNFalpha production to IC50 for human recombinant PDE4B1 assessed as reduction in [3H]cAMP hydrolysis; type: tissue-based

| SMILES | Ratio IC50 [1] | Ratio IC50 [2] |
| --- | --- | --- |
| CCn1nc(-c2cccc(-c3ccc(O)cc3F)c2)cc(NC(=O)Nc2c(Cl)cncc2Cl)c1=O | 100 to 1000 |  |
| CCn1nc(-c2cccc(-c3ccc(O)c(F)c3)c2)cc(NC(=O)Nc2c(Cl)cncc2Cl)c1=O | 100 to 1000 |  |
| CCn1nc(-c2cccc(-c3ccc(F)c(C(=O)O)c3)c2)cc(NC(=O)Nc2c(Cl)cncc2Cl)c1=O | 100 to 1000 |  |
| CCn1nc(-c2cccc(-c3cccc(O)c3)c2)cc(NC(=O)Nc2c(Cl)cncc2Cl)c1=O |  | 100 |
| CCn1nc(-c2cccc(-c3cc(C(=O)O)ccc3F)c2)cc(NC(=O)Nc2c(Cl)cncc2Cl)c1=O | 100 to 1000 |  |
